Results published in ChEMBL document CHEMBL4402545, “Subtype Selective γ-Aminobutyric Acid Type A Receptor (GABAAR) Modulators Acting at the Benzodiazepine Binding Site: An Update” (J Med Chem, 2020).
pKi: −log10 of the molar value.

Assays:
[1] = target: T1, Gamma-aminobutyric acid receptor subunit alpha-5 (Homo sapiens) (UniProt P31644); assay: Binding affinity to GABA-A alpha5 (unknown origin) assessed as reduction in DMCM induced current relative to control
T1 sequence (whole entry): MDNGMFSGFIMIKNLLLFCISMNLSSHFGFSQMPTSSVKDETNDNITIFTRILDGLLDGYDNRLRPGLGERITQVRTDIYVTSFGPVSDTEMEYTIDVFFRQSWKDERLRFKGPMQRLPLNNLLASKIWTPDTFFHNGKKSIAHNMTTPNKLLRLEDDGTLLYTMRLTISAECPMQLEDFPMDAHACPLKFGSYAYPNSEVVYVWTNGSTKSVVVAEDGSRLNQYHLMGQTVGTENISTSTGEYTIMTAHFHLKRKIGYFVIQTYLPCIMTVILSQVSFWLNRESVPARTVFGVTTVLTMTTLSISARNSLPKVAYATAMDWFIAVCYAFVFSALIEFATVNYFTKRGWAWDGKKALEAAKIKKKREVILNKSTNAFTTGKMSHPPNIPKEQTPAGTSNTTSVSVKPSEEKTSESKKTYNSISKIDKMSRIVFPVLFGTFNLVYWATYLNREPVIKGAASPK

[2] = target: T2, GABA-A receptor; alpha-3/beta-3/gamma-2 (Homo sapiens, UniProt P18507+P28472+P34903); assay: Displacement of [3H]-flunitrazepam from human GABAA alpha3beta3gamma2 expressed in HEK293T cells by liquid scintillation counting method; type: cell-based
T2 sequence (P18507 whole entry): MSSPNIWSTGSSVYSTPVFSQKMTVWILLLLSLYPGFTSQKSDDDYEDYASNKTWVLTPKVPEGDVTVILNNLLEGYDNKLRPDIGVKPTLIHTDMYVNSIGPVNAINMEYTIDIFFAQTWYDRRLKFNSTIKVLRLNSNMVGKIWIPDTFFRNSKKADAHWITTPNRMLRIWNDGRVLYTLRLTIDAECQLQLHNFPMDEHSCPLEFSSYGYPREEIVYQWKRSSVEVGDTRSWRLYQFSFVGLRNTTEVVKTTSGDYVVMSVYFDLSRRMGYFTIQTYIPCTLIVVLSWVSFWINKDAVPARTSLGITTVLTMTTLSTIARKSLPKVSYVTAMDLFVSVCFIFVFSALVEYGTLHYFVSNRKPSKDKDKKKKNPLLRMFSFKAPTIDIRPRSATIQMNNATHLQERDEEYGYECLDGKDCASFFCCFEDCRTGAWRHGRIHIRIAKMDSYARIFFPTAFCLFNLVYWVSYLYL
T2 sequence (P28472 whole entry): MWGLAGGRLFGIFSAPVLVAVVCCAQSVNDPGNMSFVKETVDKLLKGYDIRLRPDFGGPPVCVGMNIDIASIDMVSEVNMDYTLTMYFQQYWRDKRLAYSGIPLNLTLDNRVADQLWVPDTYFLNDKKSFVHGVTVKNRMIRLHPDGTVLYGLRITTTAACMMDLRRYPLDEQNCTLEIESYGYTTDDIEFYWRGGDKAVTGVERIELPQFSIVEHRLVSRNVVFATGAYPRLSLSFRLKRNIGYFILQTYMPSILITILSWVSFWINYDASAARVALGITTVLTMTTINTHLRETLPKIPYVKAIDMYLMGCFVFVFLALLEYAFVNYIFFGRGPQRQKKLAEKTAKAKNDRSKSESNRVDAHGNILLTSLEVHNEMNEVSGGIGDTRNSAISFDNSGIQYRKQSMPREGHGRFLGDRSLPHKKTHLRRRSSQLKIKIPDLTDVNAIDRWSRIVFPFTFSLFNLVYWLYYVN
T2 sequence (P34903 whole entry): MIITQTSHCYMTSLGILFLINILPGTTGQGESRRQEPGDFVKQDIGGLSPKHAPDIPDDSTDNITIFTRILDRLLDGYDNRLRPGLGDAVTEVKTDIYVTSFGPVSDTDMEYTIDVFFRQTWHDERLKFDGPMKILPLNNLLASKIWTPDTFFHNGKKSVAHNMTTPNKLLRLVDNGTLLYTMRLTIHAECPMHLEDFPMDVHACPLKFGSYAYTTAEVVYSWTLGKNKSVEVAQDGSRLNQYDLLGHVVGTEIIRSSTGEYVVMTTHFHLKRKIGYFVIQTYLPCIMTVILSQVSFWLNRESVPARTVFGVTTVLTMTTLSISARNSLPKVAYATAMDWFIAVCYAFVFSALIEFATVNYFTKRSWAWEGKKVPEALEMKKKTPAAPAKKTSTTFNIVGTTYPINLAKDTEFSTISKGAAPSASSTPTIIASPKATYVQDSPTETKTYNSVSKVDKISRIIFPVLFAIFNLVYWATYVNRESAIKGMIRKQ

[3] = target: T3, GABA-A receptor; alpha-1/beta-3/gamma-2 (Homo sapiens, UniProt P14867+P18507+P28472); assay: Displacement of [3H]-flunitrazepam from human GABAA alpha1beta3gamma2 expressed in HEK293T cells by liquid scintillation counting method; type: cell-based
T3 sequence (P14867 whole entry): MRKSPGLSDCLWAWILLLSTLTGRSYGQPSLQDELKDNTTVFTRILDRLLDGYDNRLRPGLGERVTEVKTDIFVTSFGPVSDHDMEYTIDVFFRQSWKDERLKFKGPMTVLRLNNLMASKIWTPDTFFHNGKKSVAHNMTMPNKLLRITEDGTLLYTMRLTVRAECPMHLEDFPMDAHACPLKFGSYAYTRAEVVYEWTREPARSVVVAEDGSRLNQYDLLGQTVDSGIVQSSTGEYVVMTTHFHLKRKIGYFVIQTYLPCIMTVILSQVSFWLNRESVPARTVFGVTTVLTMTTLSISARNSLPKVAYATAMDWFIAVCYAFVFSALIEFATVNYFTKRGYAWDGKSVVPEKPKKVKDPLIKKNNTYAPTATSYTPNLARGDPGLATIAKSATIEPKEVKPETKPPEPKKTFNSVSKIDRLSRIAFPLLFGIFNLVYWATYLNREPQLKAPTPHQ
T3 sequence (P18507 whole entry): T2 sequence (P18507 whole entry)
T3 sequence (P28472 whole entry): T2 sequence (P28472 whole entry)

[4] = target: T4, GABA-A receptor; alpha-5/beta-3/gamma-2 (Homo sapiens, UniProt P18507+P28472+P31644); assay: Displacement of [3H]-flunitrazepam from human GABAA alpha5beta3gamma2 expressed in HEK293T cells by liquid scintillation counting method; type: cell-based
T4 sequence (P18507 whole entry): T2 sequence (P18507 whole entry)
T4 sequence (P28472 whole entry): T2 sequence (P28472 whole entry)
T4 sequence (P31644 whole entry): T1 sequence (whole entry)

[5] = target: T5, Gamma-aminobutyric acid receptor subunit alpha-3 (Homo sapiens) (UniProt P34903); assay: Binding affinity to GABA-A alpha3 (unknown origin) assessed as reduction in DMCM induced current relative to DMCM
T5 sequence (whole entry): T2 sequence (P34903 whole entry)

[6] = target: T6, Gamma-aminobutyric acid receptor subunit alpha-2 (Homo sapiens) (UniProt P47869); assay: Binding affinity to GABA-A alpha2 (unknown origin) assessed as reduction in DMCM induced current relative to DMCM
T6 sequence (whole entry): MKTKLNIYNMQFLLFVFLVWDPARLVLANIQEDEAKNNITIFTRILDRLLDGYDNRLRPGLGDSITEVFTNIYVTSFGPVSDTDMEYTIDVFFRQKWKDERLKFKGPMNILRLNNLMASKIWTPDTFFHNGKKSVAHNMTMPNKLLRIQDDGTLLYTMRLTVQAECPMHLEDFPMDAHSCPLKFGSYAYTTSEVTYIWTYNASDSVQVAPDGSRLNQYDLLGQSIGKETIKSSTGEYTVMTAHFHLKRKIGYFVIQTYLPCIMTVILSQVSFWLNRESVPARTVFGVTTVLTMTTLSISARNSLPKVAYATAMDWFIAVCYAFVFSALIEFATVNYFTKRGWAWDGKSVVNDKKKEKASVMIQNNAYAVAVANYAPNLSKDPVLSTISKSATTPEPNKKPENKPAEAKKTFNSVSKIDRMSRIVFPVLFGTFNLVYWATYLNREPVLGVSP

[7] = target: T7, Gamma-aminobutyric acid receptor subunit alpha-1 (Homo sapiens) (UniProt P14867); assay: Negative allosteric modulation of GABA-A alpha1 (unknown origin) assessed as reduction in DMCM induced current relative to DMCM
T7 sequence (whole entry): T3 sequence (P14867 whole entry)

[8] = target: T1, Gamma-aminobutyric acid receptor subunit alpha-5 (Homo sapiens); assay: Binding affinity to GABA-A alpha5 (unknown origin) assessed as reduction in DMCM induced current relative to DMCM

Cc1c(F)c(Nc2ccc(-c3cn(C)cn3)cn2)cc2c1ncn2CC1CC1
Efficacy [1]: -44%

C#Cc1ccc2c(c1)C(c1ccccc1F)=N[C@@H](C)c1c(C(=O)OCC)ncn1-2
pKi [2]: 6.53 | pKi [3]: 6.33 | pKi [4]: 7.72

Cc1cc(-c2nncc3c(C(C)(C)C)c(OCc4ncnn4C)nn23)no1
Efficacy [5]: -0.09 | Efficacy [6]: 0.06 | Efficacy [7]: -0.16 | Efficacy [8]: -0.55
